From publication PMC10969092, “Characterization of Lysophospholipase D Activity in Mammalian Cell Membranes” (Cells, 2024)

The chains behind the UniProt entries cited, without tags or fusion partners. Where a name states a change or a piece, a line headed by the entry shows the natural chain unless it says otherwise.
UniProt P70498: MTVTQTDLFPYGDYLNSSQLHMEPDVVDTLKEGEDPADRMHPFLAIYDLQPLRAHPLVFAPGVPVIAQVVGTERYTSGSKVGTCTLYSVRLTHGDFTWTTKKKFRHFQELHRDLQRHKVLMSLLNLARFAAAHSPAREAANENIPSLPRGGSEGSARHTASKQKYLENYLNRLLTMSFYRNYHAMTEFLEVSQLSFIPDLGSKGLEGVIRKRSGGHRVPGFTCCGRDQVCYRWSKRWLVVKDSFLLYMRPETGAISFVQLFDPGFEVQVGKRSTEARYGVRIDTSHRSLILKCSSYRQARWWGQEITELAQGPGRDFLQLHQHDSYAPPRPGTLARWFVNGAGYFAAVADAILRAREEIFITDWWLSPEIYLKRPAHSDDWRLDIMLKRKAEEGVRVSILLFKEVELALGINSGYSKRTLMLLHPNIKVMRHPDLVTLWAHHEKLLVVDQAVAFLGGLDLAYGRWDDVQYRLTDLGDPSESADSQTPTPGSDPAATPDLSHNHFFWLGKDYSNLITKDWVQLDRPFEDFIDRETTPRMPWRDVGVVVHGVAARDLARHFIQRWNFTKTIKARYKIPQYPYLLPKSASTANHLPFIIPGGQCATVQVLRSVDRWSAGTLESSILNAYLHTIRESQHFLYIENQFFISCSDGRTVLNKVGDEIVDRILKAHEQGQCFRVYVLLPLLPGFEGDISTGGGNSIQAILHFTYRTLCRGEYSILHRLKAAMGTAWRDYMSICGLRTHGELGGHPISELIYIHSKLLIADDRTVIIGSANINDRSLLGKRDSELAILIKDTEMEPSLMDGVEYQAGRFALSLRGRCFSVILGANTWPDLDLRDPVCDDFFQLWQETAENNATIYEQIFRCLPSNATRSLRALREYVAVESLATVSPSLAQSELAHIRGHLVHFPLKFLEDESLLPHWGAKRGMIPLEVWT

Target: T1, PLD (Rattus norvegicus, UniProt P70498)
T1 construct: PC12K membranes were incubated with either B-PC (for PLD assay) or commercial B-lyso-PC (for lyso-PLD assay); endogenous in cells; host or cells: PC12K and A7r5 cell membranes (100,000 x g pellet)
Assay: In vitro fluorescent PLD assay in cell membranes (B-PC substrate with butanol, B-PBt product)
Format: biochemical
Conditions: mammalian (PC12K) membranes, B-PBt quantified

Substance: sodium orthovanadate
- IC50: ~30 µM
